Antibody variant affinities, Ab-14 heavy chain, assay B

Target peptide (SARS-CoV-2 spike, HR2 region): PDVDLGDISGINAS

The variants keep the light chain, the linker and the frameworks of Ab-14 (scFv order VH, a (GGGGS)3 linker, VL).
VH: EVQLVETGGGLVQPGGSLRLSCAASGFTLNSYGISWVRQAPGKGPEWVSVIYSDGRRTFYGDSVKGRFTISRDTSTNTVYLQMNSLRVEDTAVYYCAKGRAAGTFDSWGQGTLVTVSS
VL: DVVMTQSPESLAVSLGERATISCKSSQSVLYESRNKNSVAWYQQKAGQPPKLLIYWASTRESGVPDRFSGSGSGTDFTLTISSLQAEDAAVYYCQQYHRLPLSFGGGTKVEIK

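The starting antibody came from a phage panning campaign against this peptide. This is the validation round: designs drawn from the data on random variants, tested in the same kind of assay. Several design methods are mixed in this list. The scFvs were displayed on barcoded MATa yeast, the peptide on MATalpha yeast. After mating in shaken culture at 30 °C for 16 h, diploids were selected and their barcode pairs sequenced. A regression on co-assayed BCL2-family reference pairs converts the normalised counts of each replicate to an apparent Kd. There are six technical replicates.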

Each variant is given by its three heavy chain CDRs, as the data file delimits them; those of the parent are GFTLNSYGIS, VIYSDGRRTFYGDSVK, GRAAGTFDS. Variants here have at most six changes. Values are apparent Kd, the geometric mean of the replicates that gave a signal; lower means stronger binding. A pair that was not seen in any replicate is written "nd"; this usually means weak binding, but a binder can also be missed. Nonspecific signal, from three strains lacking the peptide, appeared in 1% of pairings of all heavy chain designs, centred on 120 nM (5% of these signals below 7.0 nM); values are not corrected for it. Also given: how often the same scFv was detected with the empty control strains. The authors' rule: three or more of the six replicates give a measured affinity, fewer mean a poor binder. Values of this round are not directly comparable with the first-round values of the same sequences.

The variant GFTLNSYGIS | VIYADGRRAAYGDSVA | CRAAGTFDS gave nd (0 of 6 replicates; controls 1 of 18). The variant GFSLNSYGIS | VIYSDGRRTFYGDSVK | GNVAGTFDN showed 14 nM (5 of 6 replicates; controls 0 of 18). With GFNLNSYGIS | VIYSDGRRTFYTDSVK | GQAAGTFDS the result was 3.4 nM (6 of 6 replicates; controls 1 of 18). With GFDLNSYGIS | VIYSDGRRTFYGDSVK | GRRAGTFNS the result was nd (0 of 6 replicates; controls 1 of 18). The variant GFTLNSYGIS | VIYSDGRRTFYGDEVK | GRAAGTFDS showed 17 nM (1 of 6 replicates; controls 0 of 18). The variant GFTLNEDGIS | VIYSDGRTTFYGDRVK | GRAAVTFDQ gave nd (0 of 6 replicates; controls 0 of 18). The variant GFTLNSYGIS | VIYSDGRRTFYDDNVK | GQVAGTFDS showed 5.5 nM (5 of 6 replicates; controls 0 of 18). The variant GFDLNSYGIS | VIYSDGRRTFYIDSVK | GKAAGTFDV showed 2.3 nM (6 of 6 replicates; controls 0 of 18).

The variant NFDLNSYGIS | VIYSDGRRTFYGDSVK | GRQAGTFNS gave 39 nM (4 of 6 replicates; controls 1 of 18). The variant HFTLNSYGIS | VIYSDGRRTFYIDSVK | GHVAGTFDS gave 7.9 nM (6 of 6 replicates; controls 0 of 18). The variant GFTLNEYGIS | VIYSDGRRTFYQDSVK | GRAAGTFDS showed 3.5 nM (6 of 6 replicates; controls 0 of 18). With GFQLNSYGIS | VIYSDGRRTFYGDSVK | GDNAGTFDS the result was 49 nM (6 of 6 replicates; controls 1 of 18). The variant GFTLNDYGIS | VIYSDGRRTFYGDSVK | GRRNLTFIS gave 85 nM (2 of 6 replicates; controls 0 of 18). The variant GFSLNSYGIS | VIYSDGRRTFYADSVK | GRAAGTFDD gave 5.4 nM (6 of 6 replicates; controls 1 of 18). The variant GFTLNEYGIS | VIYSDGRRTFYTDSVK | GHEAGTFDS showed 6.3 nM (3 of 6 replicates; controls 0 of 18). The variant GFSLNSYGIS | VIYSDGRRTVYGDSVK | GQAAGTFDS gave 3.1 nM (6 of 6 replicates; controls 0 of 18).

For GFTLNEYGIS | VIYSDGRRTFYGDSVK | GRMAGTFDD, the assay gave 20 nM (6 of 6 replicates; controls 0 of 18). For GFTLNSYGIS | VIYSDGRRTRYGDSVK | GRNAGTFDL, the assay gave nd (0 of 6 replicates; controls 0 of 18). The variant GFDLNKYGIS | VIYSDGRRTFYGDSVK | GRQAGTFDS showed 3.2 nM (6 of 6 replicates; controls 0 of 18). With GFSLNEYGIS | VIYSDGRRTFYCDSVK | GPAAGTFDR the result was 61 nM (5 of 6 replicates; controls 0 of 18). The variant GFTLNSYGTS | VIYSDGYRTFYGDSVK | GRAAGTGDS gave nd (0 of 6 replicates; controls 1 of 18). With GFDLNSYGIS | VIYSDGRRTFYADDVK | GRNAGTFDS the result was 2.8 nM (6 of 6 replicates; controls 0 of 18). With GFTLNEYGIS | VIYSDGKRTFYGDSVK | GRYAGTFDS the result was 2.5 nM (6 of 6 replicates; controls 0 of 18). With GFSLNEYGIS | VIYSDGRRTFYGDSVK | GKAAGTFDS the result was 750 pM (6 of 6 replicates; controls 1 of 18).

The variant KFDLNSYGIS | VIYSDGRRTFYGDSVK | GKQAGTFDS showed 10 nM (4 of 6 replicates; controls 0 of 18). With GFGLNEYGIS | VIYSDGRRTFYMDSVK | GRNAGTFDS the result was 120 nM (6 of 6 replicates; controls 1 of 18). For GFPLEDYGIS | VIYSDGRRTFYGDSVK | GRAAATDKS, the assay gave nd (0 of 6 replicates; controls 0 of 18). For GFGLNDYGIS | VIYSDGRRTFYGDSVK | GKAAGTFDS, the assay gave nd (0 of 6 replicates; controls 0 of 18). For SFTLNSYGIS | VIYSDGRRTFYGDSVK | GQEAGTFDT, the assay gave 12 nM (3 of 6 replicates; controls 0 of 18). With GFDLNEYGIS | VIYSDGRRTFYGDSVK | GRAAGTFDD the result was 740 pM (6 of 6 replicates; controls 0 of 18). The variant GFTLNSYGIS | VIYSDGRRTFYGDSVK | GFAAAFFDS gave nd (0 of 6 replicates; controls 0 of 18). With GFTLNDYGIS | VIYSDGRRTAYGDSVK | GRAAGTFHM the result was 15 nM (6 of 6 replicates; controls 1 of 18).

With GFTLNSYGIS | VIYSDGRRTFTGDSVK | GDAAGTFDS the result was 36 nM (2 of 6 replicates; controls 1 of 18). The variant GFLLNDYGIS | VIYSDGRRTFYDDSVK | GRAAGTFDS showed 24 nM (1 of 6 replicates; controls 0 of 18). For GFGLNEYGIS | VIYSDGRRTFYGDSVK | GQAAGTFDS, the assay gave 2.2 nM (6 of 6 replicates; controls 0 of 18). For GFSLNSYGIS | VIYSDGRRTFYKDSVK | GRLAGTFDS, the assay gave 3.0 nM (4 of 6 replicates; controls 0 of 18). For GFTLFSYGIS | VIYADGRRTFYQDSVK | GRAAGTTDS, the assay gave 120 nM (1 of 6 replicates; controls 0 of 18). For GFYLNSYGIS | VIYSDGRRTFYQDSVK | GQLAGTFDS, the assay gave nd (0 of 6 replicates; controls 0 of 18). For GFDLNEYGIS | VIYADGRRTFYSDSVK | GEAAGTFDM, the assay gave 250 pM (6 of 6 replicates; controls 0 of 18). The variant GFTLPDYGIS | VIYSDGRRTQYIDSVK | GRAAGTFDS gave 63 nM (3 of 6 replicates; controls 1 of 18).

With GFTLNEYGIS | VIYSDGRRTFYGDSVK | GRAALTFDT the result was nd (0 of 6 replicates; controls 0 of 18). For GFGLNEYGIS | VIYSDGRRTFYGDPVK | GRTAGTFDS, the assay gave 4.4 nM (6 of 6 replicates; controls 0 of 18). The variant GFNLNSYGIS | VIYSDGRRTFYGDQVK | GNTAGTFDS gave 1.4 nM (6 of 6 replicates; controls 0 of 18). The variant GFQLNSYGIS | VIYSDGRRTFYSDSVK | GKQAGTFDS gave 4.6 nM (6 of 6 replicates; controls 0 of 18). For GFDLNSYGIS | VIYSDGRRTFYIDAVK | GRTAGTFDS, the assay gave 4.0 nM (6 of 6 replicates; controls 0 of 18). With GFELNDYGIS | VIYSDGRRTFYGDSVK | GKTAGTFDS the result was 580 pM (6 of 6 replicates; controls 1 of 18). The variant GESLNSYGVS | VIYSDGRRTFYGDSVK | GRAAGTFVY gave nd (0 of 6 replicates; controls 0 of 18). The variant GFTLNSYGIS | VDYSDGRRTFYGDSVK | GRAAGMFDS showed nd (0 of 6 replicates; controls 0 of 18).

For GFSLNSYGIS | VIYSDGRRTFYADSVK | GQAAGTFDK, the assay gave 7.5 nM (4 of 6 replicates; controls 0 of 18).

Data: MIT Lincoln Laboratory AlphaSeq set, Li et al. 2023, doi:10.1038/s41467-023-39022-2, as distributed in FLAb.